scFv variants of Ab-14 (light chain) against a SARS-CoV-2 spike peptide

Data: MIT Lincoln Laboratory AlphaSeq set, Li et al. 2023, doi:10.1038/s41467-023-39022-2, as distributed in FLAb.

Target: peptide PDVDLGDISGINAS, taken from heptad repeat 2 (HR2) of SARS-CoV-2 spike.

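These sequences belong to a second round, designed from the earlier measurements on random variants of the parent. Their group label is 14L_En_Gen (En: ensemble of fine-tuned language models; Gen: genetic algorithm). The scFvs were displayed on barcoded MATa yeast, the peptide on MATalpha yeast. Mating (16 h, 30 °C) was followed by selection of diploids and sequencing of their barcodes. A regression on co-assayed BCL2-family reference pairs converts the normalised counts of each replicate to an apparent Kd. There are six technical replicates.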

Each scFv is VH, three GGGGS repeats, VL, as in the parent Ab-14, and differs from it in the CDRs of the light chain only.
VH: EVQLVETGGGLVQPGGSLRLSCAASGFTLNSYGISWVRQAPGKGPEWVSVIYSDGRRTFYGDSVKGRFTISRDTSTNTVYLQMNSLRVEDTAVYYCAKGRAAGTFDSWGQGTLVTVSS
VL: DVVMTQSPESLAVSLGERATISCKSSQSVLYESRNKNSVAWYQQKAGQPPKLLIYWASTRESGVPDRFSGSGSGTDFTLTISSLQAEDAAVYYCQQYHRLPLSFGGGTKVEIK

Variants are written as CDR1, CDR2 and CDR3 of the light chain (limits as in the source). Parent: KSSQSVLYESRNKNSVA, WASTRES, QQYHRLPLS. Affinities are written as log10 Kd with Kd in nM; a lower number is a better binder. A mean of the replicates is given; it leaves out those without a signal. A pair that was not seen in that replicate is written "nd"; this usually means weak binding, but a binder can also be missed. Background: pairings of all light chain designs with three empty control strains gave a value in 4% of cases (median 2.64, 5th percentile 1.59). Values in that range, when seen in few replicates, are hard to tell from nonspecific mating. For each scFv, signals with the empty controls are counted beside the result, with their mean in brackets. In the paper, a design with two or fewer of six values counts as a poor binder. The range of this assay differs from that of the first round, and the authors advise against merging the two.

CDR-L1,CDR-L2,CDR-L3,log10 Kd (nM) by replicate,mean log10 Kd (nM),signal with controls
KLVQFMNRGTHHTSNIA,DAVNRLD,QQYARLPLV,0.23 / 0.20 / 0.27 / 0.12 / 0.08 / 0.32,0.20,1 of 18 (2.30)
MVSQLMLWGLHAKNSIA,EAQTRHN,QQYDRLPLF,nd / nd / 1.14 / nd / nd / 2.22,1.68,0 of 18
HMSMLTLMGSRQRNSVA,QMTTREN,QQYDRLPLT,2.08 / 1.69 / 1.58 / 3.00 / 1.72 / 2.14,2.04,2 of 18 (3.34)
MVNGIMDHLSKNTNNVA,EQTTRNE,QQYDRLPLS,0.40 / 0.71 / 0.43 / 0.38 / 1.16 / 0.39,0.58,0 of 18
IVSQVMSWGIHAKNSIA,EAQTRLN,QQYDRLPLY,nd / 2.12 / nd / nd / nd / 1.55,1.83,0 of 18
KISMLINTTFEESNNVA,EMATREK,QQYNRLPLS,0.44 / 0.77 / 1.41 / 0.46 / 0.68 / 0.60,0.73,0 of 18
MVNGIMDHLSKNVNNVA,ETETRNS,QQYDRLPLS,0.50 / 0.53 / 0.34 / 0.57 / 0.53 / 0.43,0.48,1 of 18 (2.26)
MFSQMTGLGMKASNSVA,QASMRFD,QQYHRLPLI,1.27 / 1.54 / 2.64 / 1.67 / 2.21 / 1.91,1.87,0 of 18
TIGASLRYGSRNRSNVA,EVSQRLN,QQYDRLPLM,1.06 / 0.71 / 0.66 / 1.13 / 1.13 / 0.63,0.89,1 of 18 (1.33)
MISQILNMGSFAINSVA,QASIRCN,QQYDRLPLM,nd / nd / nd / nd / nd / nd,nd,0 of 18
MISQLYNMGSFAINSVA,QASERNN,QQYDRLPLI,3.02 / 2.54 / 1.66 / 1.83 / 2.05 / 1.89,2.17,1 of 18 (1.80)
TISQMSTLFSQSIQNVA,EVSTREQ,QQYDRLPLM,0.27 / -0.03 / 0.56 / 0.26 / 0.59 / 0.13,0.30,0 of 18
HLGMLTMLEEYVRNSVA,NNSTREE,QQYDRLPLS,nd / nd / nd / nd / nd / nd,nd,1 of 18 (3.39)
TISQVMNTLTRHGNNVA,DLQNRED,QQYFRLPLS,0.75 / 0.17 / 0.41 / 0.37 / 0.26 / 0.57,0.42,0 of 18
SISGFMKSLSAHLNNVA,DMTNRED,QQYDRLPLS,0.08 / 1.16 / 0.13 / 0.31 / 0.81 / 0.28,0.46,0 of 18
HMSAITLGGMRARNSVA,QMTTREN,QQYDRLPLS,0.64 / 0.49 / 0.41 / 0.70 / 0.51 / 0.51,0.54,1 of 18 (3.64)
TIGQTLMQGVRNRSNVA,EVSERLN,QQYDRLPLI,1.34 / 1.31 / 0.43 / 0.52 / 0.71 / 0.79,0.85,0 of 18
KISQMARVGSTHGNSIA,EMVTRCN,QQYHRLPLS,2.14 / 0.85 / 1.16 / 0.84 / 1.14 / 1.14,1.21,0 of 18
MISQLMNMGTFAINSVA,QASIRNE,QQYDRLPLM,nd / 1.70 / nd / 2.61 / 1.99 / 2.34,2.16,0 of 18
KLSGLMASSKFAKDNVA,ENNTRED,QQYDRLPLS,2.15 / nd / nd / nd / nd / nd,2.15,2 of 18 (3.13)
MMSQVTGMESHQRNNVA,QTSTRES,QQYDRLPLI,1.01 / 1.16 / 0.67 / 0.54 / 0.51 / 0.43,0.72,0 of 18
KISMTVENQLKNRNSVA,ELVTRMA,QQYNRLPLS,0.95 / 0.70 / 1.44 / 1.10 / 0.79 / 1.68,1.11,0 of 18
KIGSTLNQMMHKKNNVA,DLVTREN,QQYHRLPLS,0.45 / 0.49 / 0.54 / 0.34 / 0.12 / 0.23,0.36,1 of 18 (2.05)
IVSQLMLWGYHAKNSIA,EAQTKLN,QQYERLPLF,0.97 / 1.13 / 0.50 / 0.81 / 0.38 / 1.19,0.83,0 of 18
MLSEVLHMLGVKKNSIA,DLVIRAN,QQYHRLPLA,1.88 / 0.95 / 0.95 / 1.19 / 1.66 / 1.27,1.32,0 of 18
KISQMVRVGSTHSSSIA,EEETRAK,QQYHRLPLS,0.46 / 0.74 / 0.65 / 0.65 / 0.39 / 0.45,0.56,0 of 18
KIGMTLNQLMHKKNNVA,DLVERAN,QQYFRLPLS,-0.08 / 0.10 / -0.35 / -0.28 / -0.39 / -0.10,-0.18,3 of 18 (2.14)
IVSQLMLWGLHAKNSIA,EAATRYN,QQYERLPLF,nd / 1.74 / nd / nd / nd / 0.82,1.28,1 of 18 (1.40)
MISQLMNMGQFAINSVA,QADIRNS,QQYDRLPLA,2.01 / 1.91 / 2.07 / 1.58 / 2.31 / 1.85,1.95,2 of 18 (2.47)
MISQLMNVGQFAINSVA,QASIRNA,QQYDRLPLA,0.78 / 1.15 / 0.97 / 1.28 / 0.97 / 1.32,1.08,0 of 18
MVSQLMVWGLHAKNSIA,EAQTRIN,QQYDRLPLF,1.49 / 2.07 / 1.34 / 1.86 / 2.34 / 1.82,1.82,0 of 18
TLSQMSGVESVKRNNVA,ENSTREK,QQYDRLPLA,nd / 2.33 / 2.78 / 1.66 / 2.73 / 1.92,2.28,1 of 18 (2.01)
KIGMTLNQLYEKVNNVA,DLVTREA,QQYHRLPLS,0.25 / 0.28 / -0.08 / -0.19 / -0.08 / 0.06,0.04,2 of 18 (2.85)
KVSEFMRGLMMRSDSIA,DNVTRNK,QQYDRLPLS,0.76 / 1.24 / nd / 2.50 / 1.02 / 1.99,1.50,1 of 18 (2.66)
HMSALTMMGMRQRNSVA,QMTTREN,QQYDRLPLA,1.49 / 1.05 / 1.28 / 1.01 / 2.05 / 1.17,1.34,1 of 18 (2.48)
HMSMLTLQGMRHTNSVA,QMTTREN,QQYDRLPLA,0.68 / 0.49 / 0.42 / 0.42 / 0.19 / 0.80,0.50,1 of 18 (2.49)
HITYGMYVSGRYKSNIA,QAETRIK,QQYDRLPLI,1.46 / 1.16 / 1.65 / 1.64 / 1.13 / 1.44,1.42,1 of 18 (3.21)
KISQMIRVGATHSNSIA,EEVTRAK,QQYHRLPLA,0.70 / 0.46 / 0.25 / 0.34 / 0.42 / 0.53,0.45,0 of 18
KISMLINQTFEQSNNVA,EMVTRMN,QQYHRLPLS,0.64 / 1.05 / 0.80 / 0.93 / 0.69 / 0.98,0.85,0 of 18
KIGDTLNQQMTKRNNVA,DLVTREN,QQYFRLPLS,-0.30 / -0.15 / -0.24 / 0.05 / -0.35 / 0.20,-0.13,0 of 18
NISHFMDVTAKNINNVA,EMTTREE,QQYHHLPLS,0.48 / 0.27 / 0.38 / 0.11 / 0.01 / 0.79,0.34,2 of 18 (2.46)
KVSEFMKGLMMRTDSIA,DNETRGA,QQYDRLPLS,nd / nd / nd / nd / 2.04 / nd,2.04,1 of 18 (2.18)
TLSQMSGVESVKHNNVA,ENSTREK,QQYDRLPLA,nd / nd / 2.27 / nd / nd / nd,2.27,1 of 18 (2.40)

The opening 4 entries, copied out:

| CDR-L1 | CDR-L2 | CDR-L3 | log10 Kd (nM) by replicate | mean log10 Kd (nM) | signal with controls |
|---|---|---|---|---|---|
| KLVQFMNRGTHHTSNIA | DAVNRLD | QQYARLPLV | 0.23 / 0.20 / 0.27 / 0.12 / 0.08 / 0.32 | 0.20 | 1 of 18 (2.30) |
| MVSQLMLWGLHAKNSIA | EAQTRHN | QQYDRLPLF | nd / nd / 1.14 / nd / nd / 2.22 | 1.68 | 0 of 18 |
| HMSMLTLMGSRQRNSVA | QMTTREN | QQYDRLPLT | 2.08 / 1.69 / 1.58 / 3.00 / 1.72 / 2.14 | 2.04 | 2 of 18 (3.34) |
| MVNGIMDHLSKNTNNVA | EQTTRNE | QQYDRLPLS | 0.40 / 0.71 / 0.43 / 0.38 / 1.16 / 0.39 | 0.58 | 0 of 18 |